Key:
[1] = test system: Trichoderma viride (ATCC 8678); experiment: Antifungal activity, agar plate growth inhibition; format: cell-based; conditions: 14 days; also: key: -: no inhibition of growth; +: partial inhibition; 2+: complete inhibition
Escherichia coli = experiment: Antibacterial activity, agar growth inhibition; format: cell-based; conditions: for growth inhibition: Gram-negative, 24 hours at 37° C.
[2] = test system: Cladosporium carpophilium (ATCC 12117); experiment: Antifungal activity, agar plate growth inhibition; format: cell-based, Cladosporium carpophilum; conditions: 14 days; also: key: -: no inhibition of growth; +: partial inhibition; 2+: complete inhibition
[3] = test system: Chaetomium globosum (ATCC 6205); experiment: Antifungal activity, agar plate growth inhibition; format: cell-based; conditions: 14 days; also: key: -: no inhibition of growth; +: partial inhibition; 2+: complete inhibition
[4] = test system: Myrothecium verrucaria (ATCC 9095); experiment: Antifungal activity, agar plate growth inhibition; format: cell-based; conditions: 14 days; also: key: -: no inhibition of growth; +: partial inhibition; 2+: complete inhibition
[5] = test system: Saccharomyces cerevisiae (ATCC 9896); experiment: Antifungal activity, agar plate growth inhibition; format: cell-based; conditions: 14 days; also: key: -: no inhibition of growth; +: partial inhibition; 2+: complete inhibition
[6] = test system: Aspergillus niger (ATCC 12845); experiment: Antifungal activity, agar plate growth inhibition; format: cell-based; conditions: 14 days; also: key: -: no inhibition of growth; +: partial inhibition; 2+: complete inhibition
[7] = test system: Penicillium notatum (ATCC 9179); experiment: Antifungal activity, agar plate growth inhibition; format: cell-based; conditions: 14 days; also: key: -: no inhibition of growth; +: partial inhibition; 2+: complete inhibition
[8] = test system: Rhizopus stolonifer (ATCC 10404); experiment: Antifungal activity, agar plate growth inhibition; format: cell-based; conditions: 14 days; also: key: -: no inhibition of growth; +: partial inhibition; 2+: complete inhibition
[9] = test system: Trichophyton mentagrophytes (ATCC 9129); experiment: Antifungal activity, agar plate growth inhibition; conditions: 14 days; also: key: -: no inhibition of growth; +: partial inhibition; 2+: complete inhibition
[10] = test system: Fusarium moniliforme (ATCC 10052); experiment: Antifungal activity, agar plate growth inhibition; format: cell-based; conditions: 14 days; also: key: -: no inhibition of growth; +: partial inhibition; 2+: complete inhibition

For `CC(=O)[N](C#N)[Sn-]([Cl])([c]1ccccc1)([c]1ccccc1)[c]1ccccc1.CC[NH+](CC)CC` [compound 5, Triethylammonium-(acetylcyanoamino)-chloro-triphenyl stannate], the growth inhibition ([1]; 1 μg/ml) was “+”, the growth inhibition ([1]; 10 μg/ml) was “+” and the growth inhibition ([1]; 100 μg/ml) was “+”. The “growth inhibition (in words)” value (Escherichia coli; 100 μg/ml) was “partially”, the growth inhibition (Escherichia coli; 1 μg/ml) was “-” and the growth inhibition (Escherichia coli; 10 μg/ml) was “-”. The growth inhibition ([2]; 1 μg/ml) was “+”, the growth inhibition ([2]; 10 μg/ml) was “+” and the growth inhibition ([2]; 100 μg/ml) was “+”. For the same compound, the growth inhibition ([3]; 1 μg/ml) was “+”, the growth inhibition ([3]; 10 μg/ml) was “+” and the growth inhibition ([3]; 100 μg/ml) was “+”. For the same compound, the growth inhibition ([4]; 1 μg/ml) was “+”, the growth inhibition ([4]; 10 μg/ml) was “+” and the growth inhibition ([4]; 100 μg/ml) was “+”. The growth inhibition ([5]; 1 μg/ml) was “+”, the growth inhibition ([5]; 10 μg/ml) was “+” and the growth inhibition ([5]; 100 μg/ml) was “+”. For the same compound, the growth inhibition ([6]; 1 μg/ml) was “+”, the growth inhibition ([6]; 10 μg/ml) was “+” and the growth inhibition ([6]; 100 μg/ml) was “+”. The growth inhibition ([7]; 1 μg/ml) was “+”, the growth inhibition ([7]; 10 μg/ml) was “+” and the growth inhibition ([7]; 100 μg/ml) was “+”. The growth inhibition ([8]; 1 μg/ml) was “+”, the growth inhibition ([8]; 10 μg/ml) was “+” and the growth inhibition ([8]; 100 μg/ml) was “+”. The growth inhibition ([9]; 1 μg/ml) was “+”, the growth inhibition ([9]; 10 μg/ml) was “+” and the growth inhibition ([10]; 1 μg/ml) was “+”. For the same compound, the growth inhibition ([10]; 10 μg/ml) was “+” and the growth inhibition ([10]; 100 μg/ml) was “+”.

— US4497806A, “Triorganotin compounds, antifungal and antibacterial compositions containing same, and method of using same” (priority 1983, dated 1985)
